{"source": "patent US20210369768A1", "about": "“METAL DI-AMINO ACID CHELATES OR METAL TRI-AMINO ACID CHELATES” (Balchem Corporation, priority 2020, published 2021)", "tested_on": "HEK 293 kidney cells", "assay": "Cellular uptake of zinc in HEK 293 kidney cells (BioVision colorimetric zinc uptake assay kit)", "type": "cell-based", "details": "absorbance at 560 nm", "description": "Assay was run on BioVision colorimetric zinc uptake assay kit. Absorbance was evaluated at 560 nm. Uptake was evaluated with HEK 293 kidney cells.\nAssay was run on BioVision colorimetric zinc uptake assay kit. Uptake was evaluated with HEK 293 kidney cells. Evaluation of cellular uptake relative to percent composition of zinc was evaluated.", "note": "Entries after “also recorded” stand apart in the source; their conditions may differ."}
{"substance": "zinc triglycine [ZnG3]", "values": [{"measurement": "cellular uptake compared with zinc salts", "value": "uptake comparable to that of both salts ZnCl2 and Zn(NO3)2; also recorded: comparable cellular uptake to ZnCl2"}]}
